Experiment [1] addresses Calcium/calmodulin-dependent protein kinase type 1D (Homo sapiens) (UniProt Q8IU85). Conditions: Compound concentration 20.0 uM.
Experiment [2] concerns the target T1, Transcription regulator protein BACH2 (Homo sapiens) (UniProt Q9BYV9).
T1 sequence (whole entry): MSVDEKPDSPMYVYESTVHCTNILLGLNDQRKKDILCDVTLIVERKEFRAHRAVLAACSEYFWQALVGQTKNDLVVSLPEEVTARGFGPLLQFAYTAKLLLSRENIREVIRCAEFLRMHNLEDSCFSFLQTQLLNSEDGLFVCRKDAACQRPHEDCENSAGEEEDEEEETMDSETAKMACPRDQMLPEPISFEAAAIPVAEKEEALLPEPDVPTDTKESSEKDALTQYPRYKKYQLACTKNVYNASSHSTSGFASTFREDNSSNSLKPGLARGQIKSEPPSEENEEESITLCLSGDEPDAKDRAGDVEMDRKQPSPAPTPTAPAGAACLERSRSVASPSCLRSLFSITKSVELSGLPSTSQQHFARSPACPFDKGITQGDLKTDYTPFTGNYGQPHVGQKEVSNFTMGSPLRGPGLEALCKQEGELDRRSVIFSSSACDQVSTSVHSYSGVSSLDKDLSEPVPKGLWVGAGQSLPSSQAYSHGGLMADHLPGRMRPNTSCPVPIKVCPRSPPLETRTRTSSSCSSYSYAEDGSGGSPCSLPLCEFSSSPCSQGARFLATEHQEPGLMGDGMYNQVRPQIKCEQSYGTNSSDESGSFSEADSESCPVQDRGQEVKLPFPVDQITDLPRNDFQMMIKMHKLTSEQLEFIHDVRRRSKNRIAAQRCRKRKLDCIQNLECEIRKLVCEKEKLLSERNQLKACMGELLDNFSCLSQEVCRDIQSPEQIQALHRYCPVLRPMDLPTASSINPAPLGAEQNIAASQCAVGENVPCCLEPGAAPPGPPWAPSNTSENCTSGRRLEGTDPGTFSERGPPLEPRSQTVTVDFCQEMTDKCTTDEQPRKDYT
Conditions: SUD4.

By UniProt entry, the sequences of proteins in these tests, tags left out. Where a name states a change or a piece, a line headed by the entry shows the natural chain unless it says otherwise.
UniProt Q8IU85: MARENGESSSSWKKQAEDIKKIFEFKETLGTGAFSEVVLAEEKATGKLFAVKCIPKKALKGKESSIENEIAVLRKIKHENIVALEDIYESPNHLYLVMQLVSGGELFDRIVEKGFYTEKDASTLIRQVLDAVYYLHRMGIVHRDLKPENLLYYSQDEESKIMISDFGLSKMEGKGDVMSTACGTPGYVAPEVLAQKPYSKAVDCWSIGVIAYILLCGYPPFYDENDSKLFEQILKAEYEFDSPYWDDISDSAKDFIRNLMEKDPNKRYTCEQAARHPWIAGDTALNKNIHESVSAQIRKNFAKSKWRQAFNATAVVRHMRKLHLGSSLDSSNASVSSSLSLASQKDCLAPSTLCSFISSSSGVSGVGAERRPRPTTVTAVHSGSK

Experiment [3] concerns the target T2, Zinc finger and BTB domain-containing protein 17 (Homo sapiens) (UniProt Q13105).
T2 sequence (whole entry): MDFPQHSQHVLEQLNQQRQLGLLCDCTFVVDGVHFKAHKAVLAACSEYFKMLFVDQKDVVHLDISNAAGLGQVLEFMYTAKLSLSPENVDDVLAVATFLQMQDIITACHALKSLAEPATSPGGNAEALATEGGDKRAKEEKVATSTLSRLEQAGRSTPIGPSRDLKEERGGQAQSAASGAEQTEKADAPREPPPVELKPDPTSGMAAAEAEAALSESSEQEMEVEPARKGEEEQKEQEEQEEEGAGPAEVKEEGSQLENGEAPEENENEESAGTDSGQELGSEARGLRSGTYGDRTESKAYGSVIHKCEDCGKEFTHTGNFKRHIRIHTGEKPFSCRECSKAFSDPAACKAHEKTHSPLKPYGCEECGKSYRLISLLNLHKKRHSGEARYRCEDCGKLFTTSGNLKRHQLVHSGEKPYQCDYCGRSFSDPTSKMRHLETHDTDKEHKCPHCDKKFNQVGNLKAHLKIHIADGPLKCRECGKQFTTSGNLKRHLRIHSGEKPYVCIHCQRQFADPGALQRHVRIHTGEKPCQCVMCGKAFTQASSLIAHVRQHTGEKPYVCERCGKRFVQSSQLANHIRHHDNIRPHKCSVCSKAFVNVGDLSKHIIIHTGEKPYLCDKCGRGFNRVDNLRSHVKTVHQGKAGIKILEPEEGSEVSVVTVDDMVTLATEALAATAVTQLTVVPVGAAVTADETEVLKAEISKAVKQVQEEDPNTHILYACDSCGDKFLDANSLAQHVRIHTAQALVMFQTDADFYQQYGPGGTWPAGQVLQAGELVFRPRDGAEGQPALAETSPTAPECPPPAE
As to conditions: SUD4.

Experiment [4] has as its target T3, Zinc finger and BTB domain-containing protein 2 (Homo sapiens) (UniProt Q8N680).
T3 sequence (whole entry): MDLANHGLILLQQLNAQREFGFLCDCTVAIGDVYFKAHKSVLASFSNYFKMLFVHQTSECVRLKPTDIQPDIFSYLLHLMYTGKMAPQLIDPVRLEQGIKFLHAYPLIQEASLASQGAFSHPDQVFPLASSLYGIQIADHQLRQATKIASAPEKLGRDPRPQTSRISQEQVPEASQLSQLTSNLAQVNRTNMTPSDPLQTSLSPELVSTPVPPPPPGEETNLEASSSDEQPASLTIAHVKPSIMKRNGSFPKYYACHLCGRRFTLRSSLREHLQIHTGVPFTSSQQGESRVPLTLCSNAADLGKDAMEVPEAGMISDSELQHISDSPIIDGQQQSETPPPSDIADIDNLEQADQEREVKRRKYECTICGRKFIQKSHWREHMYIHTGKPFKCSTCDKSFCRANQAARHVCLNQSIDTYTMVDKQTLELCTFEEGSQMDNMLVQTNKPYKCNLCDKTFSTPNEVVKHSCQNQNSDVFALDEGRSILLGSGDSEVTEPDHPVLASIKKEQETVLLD
Conditions: SUD4.

For experiment [5], the target named is B-cell lymphoma 6 protein (Homo sapiens, UniProt P41182). Conditions: OCI-Ly1.

Turning to `C[C@@H]1CN(c2ncc(Cl)c(Nc3ccc4c(c3)n(CCC(C)(C)O)c(=O)n4C)n2)C[C@H](C)C1(F)F`, in experiment [1], the Tm is 49 °C. Further, the Normalized abundances for DMSO in experiment [2] came to 2130; in experiment [3] it was 257; in experiment [4] it was 676; in experiment [5], 1070. Also, the Normalized abundances for compound in experiment [2] came out at 2080; in experiment [3], 263; in experiment [4], 751; in experiment [5], 154.

Values taken from ChEMBL document CHEMBL5058646 (2022).
